{"source": "patent US10472401B2", "about": "“Peptides and combination of peptides for use in immunotherapy against ovarian cancer and other cancers” (immatics biotechnologies GmbH, priority 2015, dated 2019)", "origin": "cited, not measured here", "system": "ovarian cancer", "conditions": "clinical studies; cited from earlier work", "data": [{"substance": "trastuzumab", "values": [{"measurement": "clinical results in ovarian cancer patients", "result": "only conferred limited clinical benefit to ovarian cancer patients"}]}]}
